Experimental data taken from US20190100761A1, “COMPOSITIONS AND METHODS FOR ENHANCED GENE EXPRESSION AND VIRAL REPLICATION” (priority 2016, published 2019).

Assays:
AAV vector encoding GFP = test: AAV GFP vector packaged in 293T cells overexpressing YTHDF2, GFP by FACS; assay type: cell-based, Adeno Associated Virus; conditions: dilutions 1:2 to 1:2000, naive 293T cells, vs AAV from wildtype 293T
Source text: An AAV vector encoding GFP was packaged in wildtype 293T cells or in a clonal 293T cell line overexpressing YTHDF2. Viral particles were isolated after cell lysis by sucrose gradient centrifugation and dilutions (1:2, 1:20, 1:200 and 1:2000) used to infect naive 293T cells and GFP expression then analyzed by FACS. Brown: negative control 293T cells, Blue: AAV derived from wildtype 293T Red: AAV derived from YTHDF2 overexpressing 293T cells.

[1] = test system: AAV vector encoding luciferase; assay type: cell-based, Adeno Associated Virus

For “YTHDF2: human cytoplasmic m^6A reader protein, SEQ ID NO: 5, overexpressed in cells”, the “GFP expressing cells after infection with AAV virions” value (AAV vector encoding GFP) was “higher levels of GFP expressing cells”, the “enhancement of AAV vector production” value ([1]; 293T cells expressing YTHDF2 compared to wild type cells) was no less than 5 fold and the “Luciferase Expression” value ([1]; virus dilution 1:2) was 26,610,600. For the same substance, the “Fold Increase” value ([1]; virus dilution 1:2, vs CTRL packaging cells) was 4.5x, the “Luciferase Expression” value ([1]; virus dilution 1:20) was 6,727,420 and the “Fold Increase” value ([1]; virus dilution 1:20, vs CTRL packaging cells) was 4.0x. The “Luciferase Expression” value ([1]; virus dilution 1:200) was 1,186,033, the “Fold Increase” value ([1]; virus dilution 1:200, vs CTRL packaging cells) was 4.5x and the “Luciferase Expression” value ([1]; virus dilution 1:2,000) was 98,886. The “Fold Increase” value ([1]; virus dilution 1:2,000, vs CTRL packaging cells) was 4.9x, the “Luciferase Expression” value ([1]; virus dilution 1:20,000) was 8,303 and the “Fold Increase” value ([1]; virus dilution 1:20,000, vs CTRL packaging cells) was 4.1x. The “Luciferase Expression” value ([1]; virus dilution 1:200,000) was 972 and the “Fold Increase” value ([1]; virus dilution 1:200,000, vs CTRL packaging cells) was 5.1x.

Where two headings read alike, the source gives them in different places.
